From patent EP2397149A1 (Hil-Invent Ges.M.B.H., priority 2010, dated 2011) come the findings set out here.

Molecules are shown by their SMILES.

Assay [1] deals with engrafted B-CLL mice (CD5/CD19 cells). As to conditions: after third treatment cycle. Here is the method: (§1) The original Eµ-TCL1a transgenic mice which were generously provided by C. Croce (Ohio) have been back-crossed for > 9 generations to C57BL/6 mice. Mice were killed at stated ages, or when signs of illness developed, and samples for histology, flow cytometry, and miRNA isolation were collected. The tumor load in all lymphoid organs was assessed by flow cytometry following staining for the surface markers CD19, CD5, and IgM. Approval from the Austrian Animal Ethics committee was obtained prior to performing the experiments. Engrafted mice were produced by injecting 3 x 10^6 lymphocytes of a leukemic Eµ-TCL1a transgenic mouse into 30 Black 6 mice from Charles River Laboratories, Sulzfeld, Germany.
First a treatment study included 10 mice.
To assess tumour load development after treatment blood samples were collected from the tail vein (Fig. 4).

The test system of assay [2] is engrafted CLL mice (CD5/CD19 cells). The experiment in a line: Treatment study 02: reduced actinomycin D concentrations in murine B-CLL model. Format: in vivo. To be noted: after three rounds of treatment. Here is the method: as §1
In example 1 a treatment schedule of 0.06 mg/kg daily for two weeks was used. […] To assess the tumour load blood samples were consecutively taken from the tail vein.

Consider `Cc1c2oc3c(C)ccc(C(=O)N[C@@H]4C(=O)N[C@H](C(C)C)C(=O)N5CCC[C@H]5C(=O)N(C)CC(=O)N(C)[C@@H](C(C)C)C(=O)O[C@@H]4C)c3nc-2c(C(=O)N[C@@H]2C(=O)N[C@H](C(C)C)C(=O)N3CCC[C@H]3C(=O)N(C)CC(=O)N(C)[C@@H](C(C)C)C(=O)O[C@@H]2C)c(N)c1=O` [actinomycin D], for which the figures for the resistance development result in assay [1] and in assay [2] were “no development of resistance” and “no resistance development could be observed”, respectively.
